Data set [1] deals with rats. In words: Acute toxicity test on rats. To be noted: dose of 200 mg/kg body weight.
Data set [2] deals with PDZ1/2 domain (Homo sapiens, UniProt P78352). Nature of the data set: Biacore interaction force test of chimeric peptides with PDZ1/2 domain. As to conditions: Biacore 3000, CM5 chip, immobilised PDZ1/2 protein, 1:1 binding model. Background: In SPR one partner is held on a chip, and binding of the other changes the refractive index at the surface.

Protein sequences, listed by entry. Tags and fused reporters are not part of them. Residues count along the entry.
UniProt P78352, 61-249 limits assumed: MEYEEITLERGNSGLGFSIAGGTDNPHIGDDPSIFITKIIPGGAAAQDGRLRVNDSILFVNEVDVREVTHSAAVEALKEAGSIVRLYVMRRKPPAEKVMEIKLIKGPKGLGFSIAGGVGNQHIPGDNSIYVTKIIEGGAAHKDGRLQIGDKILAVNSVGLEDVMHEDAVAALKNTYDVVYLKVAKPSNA

Take `CC(C)C[C@H](NC(=O)[C@H](CCCCN)NC(=O)[C@H](CCC(=O)O)NC(=O)[C@H](Cc1ccc(O)cc1)NC(=O)[C@H](CCCNC(=N)N)NC(=O)[C@H](CCCNC(=N)N)NC(=O)[C@H](CCCNC(=N)N)NC(=O)[C@H](CCC(N)=O)NC(=O)[C@H](CCCNC(=N)N)NC(=O)[C@H](CCCNC(=N)N)NC(=O)[C@H](CCCCN)NC(=O)[C@H](CCCCN)NC(=O)[C@H](CCCNC(=N)N)NC(=O)CNC(=O)[C@@H](N)Cc1ccc(O)cc1)C(=O)N[C@H](C(=O)N[C@H](C(=O)N[C@@H](CC(C)C)C(=O)N[C@@H](CC(=O)O)C(=O)N[C@H](C(=O)NCC(=O)NCC(=O)N[C@H](C(=O)O)C(C)C)[C@@H](C)O)[C@@H](C)O)[C@@H](C)O` [P6]: in data set [1], the acute toxicity result is “no lethal effect and other obvious toxic side effects”.

In data set [2], `CC[C@H](C)[C@H](NC(=O)[C@H](CO)NC(=O)[C@H](CO)NC(=O)[C@H](CC(C)C)NC(=O)[C@H](CCCCN)NC(=O)[C@H](CCC(=O)O)NC(=O)[C@H](Cc1ccc(O)cc1)NC(=O)[C@H](CCCNC(=N)N)NC(=O)[C@H](CCCNC(=N)N)NC(=O)[C@H](CCCNC(=N)N)NC(=O)[C@H](CCC(N)=O)NC(=O)[C@H](CCCNC(=N)N)NC(=O)[C@H](CCCNC(=N)N)NC(=O)[C@H](CCCCN)NC(=O)[C@H](CCCCN)NC(=O)[C@H](CCCNC(=N)N)NC(=O)CNC(=O)[C@@H](N)Cc1ccc(O)cc1)C(=O)N[C@@H](CCC(=O)O)C(=O)N[C@@H](CO)C(=O)N[C@@H](CC(=O)O)C(=O)N[C@H](C(=O)O)C(C)C` [YE-NA-1, reference compound] had a Kd of 0.0544 µM. This counts as double-digit nanomolar.

As usually defined, the Kd is the concentration at which binding is half-saturated. A higher Kd goes with lower affinity.

For the origin of these results see patent publication US20190134150A1, “THERAPEUTIC METHODS FOR EXCITATORY NEUROTOXICITY-RELATED INJURIES” (Biocells (Beijing) Biotech Co., Ltd., priority 2016, published 2019).
